Biological target: human 5HT2A receptor (Homo sapiens, UniProt P28223)
Test: Receptor Binding Assay, 5HT2A ([3H]N-methyl spiperone)
Settings: read-out: 5-HT2A Ki; BHK cells expressing human 5HT2A receptor, 2.5 nM [3H]N-methyl spiperone, 37° C.; tested form: TFA
Experimental: Cell Culture: BHK cells stably expressing the human 5HT2A receptor were maintained in Dulbecco's Modified Eagle's Medium supplemented with […] Geneticin, 1% Sodium Pyruvate, 1% Pen-Strep and 10% Fetal Calf Serum, and treated with 5 mM sodium butyrate for 24 h to increase receptor expression before harvesting. Cells were harvested by mechanical scraping, washed with Phosphate Buffered Saline, and stored at −80° C. in 10% DMSO in 1 mg/mil aliquots until used. Protein determination was made according to Lowry.
Receptor Binding Assays: The 5HT2A and D2L assays were conducted at 37° C. in a Tris buffer containing salts (50 mM Tris Buffer, pH 7.7; 120 mM NaCl; 5 mM KCl; 2 mM CaCl2; 1 mM MgCl2). Cell membranes (previously prepared and frozen) were rapidly thawed. Membranes were diluted to an appropriate concentration (to produce 100 μg protein/assay point for 5HT2A, and 58 μg protein/assay point for D2L) in Tris buffer and homogenized. Assays were conducted on 96-well plates, using 2.5 and 1 nM [^3H]N-methyl spiperone as radioligand for 5HT2A and D2L assays, respectively. […]
Assays were terminated by rapid filtration through Millipore MAFB or MAFC (5HT2C) filter plates (presoaked in 50 mM Tris HCl, pH 7.7, with 0.1% Brij) using a Millipore Cell Harvester. […] 50 μl of Microscint scintillation cocktail were added and the plates were counted in a Packard Topcount scintillation counter. […]

Sequences of proteins named here, by UniProt entry; tags and fusion partners are left off.
UniProt P28223, whole entry: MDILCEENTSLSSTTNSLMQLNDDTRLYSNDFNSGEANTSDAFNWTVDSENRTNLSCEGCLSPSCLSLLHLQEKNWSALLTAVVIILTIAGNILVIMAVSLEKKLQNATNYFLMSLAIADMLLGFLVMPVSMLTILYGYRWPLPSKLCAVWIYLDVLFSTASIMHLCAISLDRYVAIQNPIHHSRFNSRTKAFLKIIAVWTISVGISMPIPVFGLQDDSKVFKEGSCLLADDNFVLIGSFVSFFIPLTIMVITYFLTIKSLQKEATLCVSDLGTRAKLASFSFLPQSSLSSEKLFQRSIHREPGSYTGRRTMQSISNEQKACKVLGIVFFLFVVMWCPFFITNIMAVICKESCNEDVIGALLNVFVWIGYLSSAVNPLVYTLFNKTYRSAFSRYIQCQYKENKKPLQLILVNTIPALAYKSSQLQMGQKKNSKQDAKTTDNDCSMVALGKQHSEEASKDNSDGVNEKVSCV

Compound: CCN1CCC[C@@H]1CN(Cc1ccc(F)cc1)Cc1cc(-c2ccc3[nH]c(=O)oc3c2)ccc1F
- Ki: 0.49 nM
